# Literature values as cited in article PMC9441481, “Risk assessment and molecular mechanism study of drug-drug interactions between rivaroxaban and tyrosine kinase inhibitors mediated by CYP2J2/3A4 and BCRP/P-gp” (Frontiers in Pharmacology, 2022).
# Conditions: clinical oral dose of 50 mg/d; ref Di Gion et al., 2011; cited from earlier work
structure (smiles),measurement,value
CCN(CC)CCNC(=O)c1c(C)[nH]c(/C=C2\C(=O)Nc3ccc(F)cc32)c1C [Sunitinib],maximum plasma concentration,approximately 70 nM
